Assay [1] concerns the target GLP-1R naturally expressed on mouse insulinoma-derived MIN6 cells and mouse pancreatic beta cells (mouse) (UniProt O35659).
Assay [2] has the same target. The assay is described as follows: cell binding, fluorescence plate reader, MIN6 cells, 1 hour at 37 C.
Another assay has as its target human GLP-1R (human) (UniProt P43220). The assay is described as follows: cell binding, fluorescence plate reader, HEK/hGLP-1R cells, 1 hour at 37 C.

pEC50: −log10 of the molar value.

Consider “Exendin-4 (from UniProt P26349 48-86) (peptide)”, for which, in assay [1], the fold lower fluorescence of Exendin-4K12-VT680 after pre-treatment was 5 fold.
The substance Exendin-4K12-VT680 (peptide) showed a pEC50 in assay [2] of 9.30.
Regarding “Exendin-4K12-VT680 (peptide; other documents disagree on this pair)”, the pEC50 with human GLP-1R (human) is 9.52.

Values taken from patent publication US20160263250A1.
